The values that follow come from US20220387549A1 (BEIJING LEPU PHARMACEUTICAL TECHNOLOGY CO. , LTD, priority 2019, published 2022).

Molecules are shown by their SMILES.

This data set in a line: Preliminary determination of pharmacokinetic properties in SD rats. Format: in vivo. The settings on record: both sexes, rat, subcutaneous (SC) administration, 1 mg/kg, plasma by LC/MS. The protocol:
Each compound was tested in two administration groups.
Tail vein intravenous injection group: The dose was 1 mg/kg. Blood samples were collected from the orbital vein of the rats before administration (0 h) and 30 min, 1 h, 2 h, 4 h, 8 h, 24 h, 48 h, 96 h, and 144 h after administration. Plasma samples were collected after centrifugation.
Subcutaneous administration group: The dose was 1 mg/kg. Blood samples were collected from the orbital vein of the rats before administration (0 h) and 1 h, 2 h, 3 h, 4 h, 8 h, 24 h, 48 h, 96 h, and 144 h after administration. Plasma samples were collected after centrifugation.
The concentrations of the corresponding compounds in the plasma samples from SD rats were determined by LC/MS.
As for `C/C=C(\NC(=O)[C@@H](N)Cc1c[nH]cn1)C(=O)N[C@@H](CCC(=O)O)C(=O)NCC(=O)N[C@H](C(=O)N[C@@H](Cc1ccccc1)C(=O)N[C@H](C(=O)N[C@@H](CO)C(=O)N[C@@H](CC(=O)O)C(=O)N[C@H](C(=O)N[C@@H](CO)C(=O)N[C@@H](CO)C(=O)N[C@@H](Cc1ccc(O)cc1)C(=O)N[C@@H](CC(C)C)C(=O)N[C@@H](CCC(=O)O)C(=O)NCC(=O)N[C@@H](CCC(N)=O)C(=O)N[C@@H](C)C(=O)N[C@@H](C)C(=O)N[C@@H](CCCCNC(=O)COCCOCCNC(=O)COCCOCCNC(=O)CC[C@H](NC(=O)CCCCCCCCCCCCCCCCC(=O)O)C(=O)O)C(=O)N[C@@H](CCC(=O)O)C(=O)N[C@@H](Cc1ccccc1)C(=O)N[C@H](C(=O)N[C@@H](C)C(=O)N[C@@H](Cc1c[nH]c2ccccc12)C(=O)N[C@@H](CC(C)C)C(=O)N[C@H](C(=O)N[C@@H](CCCNC(=N)N)C(=O)NCC(=O)N[C@@H](CCCNC(=N)N)C(=O)NCC(N)=O)C(C)C)[C@@H](C)CC)C(C)C)[C@@H](C)O)[C@@H](C)O` [Compound 1], the half-life was 9.5 h. Regarding `C/C=C(\NC(=O)[C@@H](N)Cc1c[nH]cn1)C(=O)N[C@@H](CCC(=O)O)C(=O)NCC(=O)N[C@H](C(=O)N[C@@H](Cc1ccccc1)C(=O)N[C@H](C(=O)N[C@@H](CO)C(=O)N[C@@H](CC(=O)O)C(=O)N[C@H](C(=O)N[C@@H](CO)C(=O)N[C@@H](CO)C(=O)N[C@@H](Cc1ccc(O)cc1)C(=O)N[C@@H](CC(C)C)C(=O)N[C@@H](CCC(=O)O)C(=O)NCC(=O)N[C@@H](CCC(N)=O)C(=O)N[C@@H](C)C(=O)N[C@@H](C)C(=O)N[C@@H](CCCCNC(=O)COCCOCCOCCOCCOCCNC(=O)CC[C@H](NC(=O)CCCCCCCCCCCCCCCCC(=O)O)C(=O)O)C(=O)N[C@@H](CCC(=O)O)C(=O)N[C@@H](Cc1ccccc1)C(=O)N[C@H](C(=O)N[C@@H](C)C(=O)N[C@@H](Cc1c[nH]c2ccccc12)C(=O)N[C@@H](CC(C)C)C(=O)N[C@H](C(=O)N[C@@H](CCCNC(=N)N)C(=O)NCC(=O)N[C@@H](CCCNC(=N)N)C(=O)NCC(N)=O)C(C)C)[C@@H](C)CC)C(C)C)[C@@H](C)O)[C@@H](C)O` [Compound 3], the half-life was 8.9 h. In the case of `CC[C@H](C)[C@H](NC(=O)[C@H](Cc1ccccc1)NC(=O)[C@H](CCC(=O)O)NC(=O)[C@H](CCCCNC(=O)COCCOCCOCCOCCOCCNC(=O)CC[C@H](NC(=O)CCCCCCCCCCCCCCCCC(=O)O)C(=O)O)NC(=O)[C@H](C)NC(=O)[C@H](C)NC(=O)[C@H](CCC(N)=O)NC(=O)CNC(=O)[C@H](CCC(=O)O)NC(=O)[C@H](CC(C)C)NC(=O)[C@H](Cc1ccc(O)cc1)NC(=O)[C@H](CO)NC(=O)[C@H](CO)NC(=O)[C@@H](NC(=O)[C@H](CC(=O)O)NC(=O)[C@H](CO)NC(=O)[C@@H](NC(=O)[C@H](Cc1ccccc1)NC(=O)[C@@H](NC(=O)CNC(=O)[C@H](CCC(=O)O)NC(=O)C(NC(=O)[C@@H](N)Cc1c[nH]cn1)=C(C)C)[C@@H](C)O)[C@@H](C)O)C(C)C)C(=O)N[C@@H](C)C(=O)N[C@@H](Cc1c[nH]c2ccccc12)C(=O)N[C@@H](CC(C)C)C(=O)N[C@H](C(=O)N[C@@H](CCCNC(=N)N)C(=O)NCC(=O)N[C@@H](CCCNC(=N)N)C(=O)NCC(N)=O)C(C)C` [Compound 4], the half-life is 9.7 h.

Usually half-life stands for the time needed for the level to fall by half in the phase considered.
